# Earlier results as cited in publication PMC9104152, “Phosphoproteomics Unravel HBV Triggered Rewiring of Host Phosphosignaling Events” (International Journal of Molecular Sciences, 2022).
# Target: CK2
# Conditions: target CK2; reported value, no reference given; cited from earlier work
compound,measurement,value
CN(C)c1nc2c(Br)c(Br)c(Br)c(Br)c2[nH]1 [DMAT],Ki,40 nM
